Literature values as cited in US12391660B2, “Heteroaromatic acetamide derivative, and preparation and use thereof” (Hangzhou Westan Pharmaceutical Technology Co., Ltd, priority 2019, dated 2025).

System: ovalbumine-induced mouse asthma model
Details: cited from earlier work

For `CC(C)c1ccc(NC(=O)Cn2cnc3c2c(=O)n(C)c(=O)n3C)cc1` [HC-030031], the “release of pro-inflammatory factors and neuropeptides” value is given as “reduce”.
